In test [1] the target is T1, SARS-CoV-2 M^pro (Severe acute respiratory syndrome coronavirus 2, UniProt P0DTD1). Description: biochemical. In kind it is binding.
Test [2] addresses T1, SARS-CoV-2 M^pro. Description: FRET assay of SARS-CoV-2 Mpro activity with boceprevir or narlaprevir. Format: biochemical.

As to `CCCC[C@H](NC(=O)[C@@H]1[C@@H]2[C@H](CN1C(=O)[C@@H](NC(=O)NC1(CS(=O)(=O)C(C)(C)C)CCCCC1)C(C)(C)C)C2(C)C)C(=O)C(=O)NC1CC1` [narlaprevir], the Kd (commonly the equilibrium constant for the complex coming apart) in test [1] came out at 19 µM. Further, in test [2], half-maximal inhibition (IC50) was put at 40.8 ± 4.6 µM.

These data come from patent US20210330661A1 (China Medical University, priority 2020, published 2021).
